# According to paper PMC7606612, “Identification of HMGA2 inhibitors by AlphaScreen-based ultra-high-throughput screening assays” (Scientific Reports, 2020):
# By UniProt entry, the sequences of proteins in these tests, tags left out. Residues count along the entry.
# UniProt P52927, 2-108 limits assumed: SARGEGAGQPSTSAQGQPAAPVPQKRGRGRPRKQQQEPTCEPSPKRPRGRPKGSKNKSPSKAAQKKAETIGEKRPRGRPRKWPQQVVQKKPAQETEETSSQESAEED
# How the values were obtained:
# HMGA2 = HMGA2 (Mus musculus, UniProt P52927); test: Isothermal titration calorimetry (ITC), titration into HMGA2; details: for HMGA2 Binding site: number of sites
# HMGA2-DNA interactions = HMGA2-DNA interactions (Mus musculus, UniProt P52927); test: Protein-DNA interaction ELISA (PDI-ELISA) assay; details: inhibition of HMGA2-DNA interactions
structure (smiles),measurement,setting,value
Cc1ccc(C(=O)Nc2cc(S(=O)(=O)O)cc3ccc(S(=O)(=O)O)cc23)cc1NC(=O)Nc1cc(C(=O)Nc2cc(S(=O)(=O)O)cc3ccc(S(=O)(=O)O)cc23)ccc1C,HMGA2 Ka (M^−1),HMGA2; first type of binding sites,7.17 ± 4.68 × 10^6 M^−1
same,HMGA2 Binding site,HMGA2; first type,2.12
same,HMGA2 Binding site,HMGA2; second type,0.3
same,HMGA2 Ka (M^−1),HMGA2; second type of binding sites,2.27 ± 0.57 × 10^5 M^−1
same,IC50,HMGA2-DNA interactions,6.95 µM
